# Values of other authors, collected in patent US20220331342A1, “TREATMENT OF TRAUMATIC ENCEPHALOPATHY BY FIBROBLASTS AND THERAPEUTIC ADJUVANTS” (FIGENE, LLC, priority 2019, published 2022).
# Columns and labels:
# ALS patients = details: two controlled clinical trials
# SOD1 mutant mice = details: single therapy
compound,measurement,setting,value
"Nc1nc2ccc(OC(F)(F)F)cc2s1 [Riluzole, riluzole]",increase of survival of ALS patients,ALS patients,3-6 months
same,increase of survival,SOD1 mutant mice,13 to 15 days
